Results on one molecule are retold here after patent US20250288589A1, “PYRIDOPYRIMIDINES AND METHODS OF THEIR USE” (Kineta, Inc., priority 2021, published 2025).

Protein sequences, listed by entry. Tags and fused reporters are not part of them.
UniProt Q9Y2I7, whole entry S696N/L932S/Q995L/T998S/S1033A/Q1183K: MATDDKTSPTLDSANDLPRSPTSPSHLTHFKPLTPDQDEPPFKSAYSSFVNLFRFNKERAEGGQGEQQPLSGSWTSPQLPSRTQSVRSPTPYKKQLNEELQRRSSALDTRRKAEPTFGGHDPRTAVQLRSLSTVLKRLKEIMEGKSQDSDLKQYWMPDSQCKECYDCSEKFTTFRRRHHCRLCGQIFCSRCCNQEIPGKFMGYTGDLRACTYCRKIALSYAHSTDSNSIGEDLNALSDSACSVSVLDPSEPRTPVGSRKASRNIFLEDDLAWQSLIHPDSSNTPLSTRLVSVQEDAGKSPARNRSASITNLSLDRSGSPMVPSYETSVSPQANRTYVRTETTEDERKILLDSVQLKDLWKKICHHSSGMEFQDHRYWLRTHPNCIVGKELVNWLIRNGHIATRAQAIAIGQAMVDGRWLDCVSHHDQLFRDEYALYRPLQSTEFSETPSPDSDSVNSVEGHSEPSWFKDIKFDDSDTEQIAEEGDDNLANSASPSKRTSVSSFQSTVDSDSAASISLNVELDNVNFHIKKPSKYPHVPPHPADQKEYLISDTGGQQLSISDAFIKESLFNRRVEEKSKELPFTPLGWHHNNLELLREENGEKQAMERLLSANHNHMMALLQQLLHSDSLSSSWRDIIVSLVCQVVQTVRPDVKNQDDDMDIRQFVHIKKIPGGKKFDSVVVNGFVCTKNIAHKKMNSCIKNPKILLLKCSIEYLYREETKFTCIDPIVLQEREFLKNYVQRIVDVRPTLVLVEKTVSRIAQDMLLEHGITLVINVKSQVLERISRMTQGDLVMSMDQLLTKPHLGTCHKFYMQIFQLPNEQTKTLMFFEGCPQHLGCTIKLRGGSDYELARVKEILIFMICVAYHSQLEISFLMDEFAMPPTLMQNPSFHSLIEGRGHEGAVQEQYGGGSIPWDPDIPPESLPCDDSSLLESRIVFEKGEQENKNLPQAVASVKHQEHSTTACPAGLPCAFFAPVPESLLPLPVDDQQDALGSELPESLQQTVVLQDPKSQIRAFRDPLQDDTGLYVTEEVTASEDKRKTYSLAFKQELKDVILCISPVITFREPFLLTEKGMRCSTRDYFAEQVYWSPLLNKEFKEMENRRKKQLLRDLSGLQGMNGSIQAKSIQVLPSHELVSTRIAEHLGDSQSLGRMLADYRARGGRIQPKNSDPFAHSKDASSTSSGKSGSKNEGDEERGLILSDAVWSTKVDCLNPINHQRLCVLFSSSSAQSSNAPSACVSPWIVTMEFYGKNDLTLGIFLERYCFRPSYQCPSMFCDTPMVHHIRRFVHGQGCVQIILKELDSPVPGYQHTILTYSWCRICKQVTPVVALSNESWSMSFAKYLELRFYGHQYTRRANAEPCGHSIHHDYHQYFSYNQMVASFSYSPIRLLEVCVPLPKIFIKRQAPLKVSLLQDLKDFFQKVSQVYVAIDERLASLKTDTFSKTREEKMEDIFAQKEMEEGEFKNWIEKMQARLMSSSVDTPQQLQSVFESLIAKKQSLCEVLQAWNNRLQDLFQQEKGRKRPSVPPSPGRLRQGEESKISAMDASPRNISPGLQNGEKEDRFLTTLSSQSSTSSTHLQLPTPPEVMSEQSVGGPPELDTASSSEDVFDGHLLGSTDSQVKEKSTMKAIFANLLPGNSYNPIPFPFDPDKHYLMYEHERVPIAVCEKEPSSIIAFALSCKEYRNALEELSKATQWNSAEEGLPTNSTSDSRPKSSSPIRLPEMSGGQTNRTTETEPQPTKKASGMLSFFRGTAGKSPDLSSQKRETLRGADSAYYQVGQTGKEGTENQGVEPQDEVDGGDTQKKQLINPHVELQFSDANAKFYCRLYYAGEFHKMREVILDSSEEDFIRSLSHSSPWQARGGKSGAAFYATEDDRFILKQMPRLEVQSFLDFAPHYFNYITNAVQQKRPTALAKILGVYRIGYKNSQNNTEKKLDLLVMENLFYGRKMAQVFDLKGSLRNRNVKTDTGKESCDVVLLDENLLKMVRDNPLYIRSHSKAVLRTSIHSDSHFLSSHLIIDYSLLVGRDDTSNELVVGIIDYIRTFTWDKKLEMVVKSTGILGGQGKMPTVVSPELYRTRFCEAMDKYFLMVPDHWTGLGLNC

In the assay the target is full-length human PIKFYVE (Homo sapiens, UniProt Q9Y2I7, L932S/Q1183K/Q995L/S1033A/S696N/T998S). Put plainly: PIKfyve biochemical assay (ADP-Glo Kinase assay, Carna Biosciences). To be noted: read-out: hPIKfyve IC50, GST-PIKFYVE, 10 μM to 3 nM in duplicate.

What is called IC50 is the midpoint of a concentration-inhibition curve. For `c1ccc(-n2ccc(-c3nc(N4CCOCC4)c4ncccc4n3)n2)cc1`, the concentration for half-maximal inhibition (IC50) fell in the range of 100 to 1000 nM.
